Here are results for four compounds from paper PMC9630929 (Journal of medicinal chemistry, 2022).

Chains of the proteins cited; added tags and fusions are not shown. Residues count along the entry.
UniProt P51532, 1453-1564 limits assumed: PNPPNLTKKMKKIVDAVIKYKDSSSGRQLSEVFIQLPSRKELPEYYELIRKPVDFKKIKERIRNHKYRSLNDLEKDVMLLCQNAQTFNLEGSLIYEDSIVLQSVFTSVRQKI

Molecules are shown by their SMILES.

The test system of test [1] is SMARCA4 bromodomain. Particulars: cited from earlier work.
In test [2] the target is SMARCA4 bromodomain (Homo sapiens, UniProt P51532). The note with it: DSF, 100 μM inhibitor, 10 μM bromodomain. (Differential scanning fluorimetry follows unfolding on heating by fluorescence.)
Test [3] deals with RWPE-1 cells. Particulars: 0.1, 1, 10 μM.

On to `CN(C)/C=C1\CCn2c1nc(=O)c1c(Cl)cccc12` [Compound 2, (E)-6-Chloro-3-((dimethylamino)methylene)-2,3-dihydropyrrolo[1,2-a]quinazolin-5(1H)-one], for which the “binding toward SMARCA4 bromodomain” value in test [1] is reported as “nanomolar binding”.

With `Cc1ccccc1C1NC(=O)c2c(Cl)cccc2N1` (centres unmarked) [Compound 15, 5-Chloro-2-(2-methylphenyl)-2,3-dihydroquinazolin-4(1H)-one], the “SMARCA4 ΔTm” value in test [2] is listed as “did not exhibit detectable thermal stabilization”.

As for `Cc1cccc(C2NC(=O)c3c(Cl)cccc3N2)c1` (centres unmarked) [Compound 16, 5-Chloro-2-(3-methylphenyl)-2,3-dihydroquinazolin-4(1H)-one], the “SMARCA4 ΔTm” value in test [2] is reported as “did not exhibit detectable thermal stabilization”. Moreover, the “growth inhibition of RWPE-1 cells” value in test [3] is given as “do not inhibit the growth”.

As for `Cc1cccc(C2NC(=O)c3c(Br)cccc3N2)c1` (centres unmarked) [Compound 34, 5-Bromo-2-(3-methylphenyl)-2,3-dihydroquinazolin-4(1H)-one], the “growth inhibition of RWPE-1 cells” value in test [3] is listed as “do not inhibit the growth”.
